Here are results for 42 compounds from US8530487B1 (priority 2009, dated 2013).

The chains behind the UniProt entries cited, without tags or fusion partners.
UniProt O75762, whole entry, looked up: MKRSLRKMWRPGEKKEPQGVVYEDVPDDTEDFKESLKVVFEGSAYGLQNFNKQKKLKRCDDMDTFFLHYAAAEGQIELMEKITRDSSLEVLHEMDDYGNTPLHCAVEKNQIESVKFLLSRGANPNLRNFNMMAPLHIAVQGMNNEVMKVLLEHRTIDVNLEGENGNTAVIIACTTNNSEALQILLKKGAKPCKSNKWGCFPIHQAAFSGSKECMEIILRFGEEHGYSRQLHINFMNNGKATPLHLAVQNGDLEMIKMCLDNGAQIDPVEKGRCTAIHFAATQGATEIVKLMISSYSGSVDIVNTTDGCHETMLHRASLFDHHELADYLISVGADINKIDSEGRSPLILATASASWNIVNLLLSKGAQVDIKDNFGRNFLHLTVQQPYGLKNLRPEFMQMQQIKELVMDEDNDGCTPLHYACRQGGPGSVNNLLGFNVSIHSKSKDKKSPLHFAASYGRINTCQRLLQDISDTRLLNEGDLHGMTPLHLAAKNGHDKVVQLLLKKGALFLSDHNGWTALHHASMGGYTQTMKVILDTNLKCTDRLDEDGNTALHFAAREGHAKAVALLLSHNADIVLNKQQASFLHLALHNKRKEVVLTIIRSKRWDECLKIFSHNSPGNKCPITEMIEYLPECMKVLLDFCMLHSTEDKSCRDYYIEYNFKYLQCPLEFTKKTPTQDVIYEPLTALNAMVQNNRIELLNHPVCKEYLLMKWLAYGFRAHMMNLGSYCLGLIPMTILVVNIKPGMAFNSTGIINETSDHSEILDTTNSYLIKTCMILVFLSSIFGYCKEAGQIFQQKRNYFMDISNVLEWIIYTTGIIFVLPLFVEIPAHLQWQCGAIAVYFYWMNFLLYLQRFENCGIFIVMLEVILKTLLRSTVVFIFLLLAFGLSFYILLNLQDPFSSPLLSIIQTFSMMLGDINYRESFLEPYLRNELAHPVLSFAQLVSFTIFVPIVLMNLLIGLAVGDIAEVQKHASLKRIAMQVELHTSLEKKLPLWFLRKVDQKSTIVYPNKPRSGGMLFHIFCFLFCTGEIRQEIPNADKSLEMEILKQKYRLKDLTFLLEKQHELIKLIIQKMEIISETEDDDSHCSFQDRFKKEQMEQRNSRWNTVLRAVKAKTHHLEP

pIC50: −log10 of the molar value.

The target in the first experiment is human TRPA1 (Homo sapiens, UniProt O75762). In words: Whole-cell patch clamp experiments, block of TRPA1 current. To be noted: read-out: Activity (IC50), human TRPA1, block of current in continued presence of AITC, the 1st table, scaffold drawing 18. Type of experiment: cell-based.
Take `COCCOc1cccc(C2NC(=S)NC3=C2C(=O)c2ccccc23)c1` (stereo not drawn): the pIC50 was greater than 7.00.
Still for that read-out and setting: the same measure for `O=C1C2=C(NC(=S)NC2c2ccc(F)c(F)c2)c2ccccc21` (stereo not drawn): less than 6.00.
Still for that read-out and setting: the same measure for `CCc1ccccc1C1NC(=S)NC2=C1C(=O)c1ccccc12` (stereo not drawn): 6.30 to 7.00; for `CCOc1ccccc1C1NC(=S)NC2=C1C(=O)c1ccccc12` (stereo not drawn): less than 6.00.
For `Cc1ccc(C2NC(=S)NC3=C2C(=O)c2ccccc23)cc1` (stereo not drawn), the pIC50 is less than 6.00.
Same read-out and setting: the same measure for `O=C1C2=C(NC(=S)NC2c2ccc3c(c2)OCO3)c2ccccc21` (stereo not drawn): 6.30 to 7.00; for `O=C1C2=C(NC(=S)NC2c2ccccc2C(F)(F)F)c2ccccc21` (stereo not drawn): 6.30 to 7.00.
The same measure, in the same setting: the same measure for `COc1cc(OC)cc(C2NC(=S)NC3=C2C(=O)c2ccccc23)c1` (stereo not drawn): 6.30 to 7.00; for `O=C1C2=C(NC(=S)NC2c2cccc(OC(F)F)c2)c2ccccc21` (stereo not drawn): greater than 7.00; for `NCCOc1cccc(C2NC(=S)NC3=C2C(=O)c2ccccc23)c1` (stereo not drawn): less than 6.00.
Still for that read-out and setting: then `O=C1C2=C(NC(=S)NC2c2cccc([N+](=O)[O-])c2)c2ccccc21` (stereo not drawn), with 6.30 to 7.00; and `CN(C)CCOc1cccc(C2NC(=S)NC3=C2C(=O)c2ccccc23)c1` (stereo not drawn), with less than 6.00.
In the case of `O=C1C2=C(NC(=S)NC2c2cc(O)ccc2Br)c2ccccc21` (stereo not drawn), the pIC50 was 6.30 to 7.00.
Turning to `COc1ccc(F)c(C2NC(=S)NC3=C2C(=O)c2ccccc23)c1` (stereo not drawn), the pIC50 was greater than 7.00.
The same measure, in the same setting: the same measure for `O=C1C2=C(NC(=S)NC2c2ccccc2Cl)c2ccccc21` (stereo not drawn): 6.00 to 6.30; for `CC(C)Oc1cccc(C2NC(=S)NC3=C2C(=O)c2ccccc23)c1` (stereo not drawn): less than 6.00.
On to `O=C1C2=C(NC(=S)NC2c2c(Cl)cccc2Cl)c2ccccc21` (stereo not drawn), for which the pIC50 is 6.30 to 7.00.
Still for that read-out and setting: then `O=C1C2=C(NC(=S)NC2c2cccc(OC(F)(F)F)c2)c2ccccc21` (stereo not drawn), with 6.30 to 7.00; and `COc1cc(C2NC(=S)NC3=C2C(=O)c2ccccc23)ccc1O` (stereo not drawn), with less than 6.00; and `COc1ccc(C2NC(=S)NC3=C2C(=O)c2ccccc23)cc1Br` (stereo not drawn), with less than 6.00.
Still for that read-out and setting: the same measure for `O=C1C2=C(NC(=S)NC2c2ccc(Cl)c(F)c2)c2ccccc21` (stereo not drawn): 6.30 to 7.00; for `O=C1C2=C(NC(=S)NC2c2cccc(O)c2)c2ccccc21` (stereo not drawn): 6.30 to 7.00; for `O=C1C2=C(NC(=S)NC2c2cc(F)c(F)c(F)c2)c2ccccc21` (stereo not drawn): 6.30 to 7.00.
Still for that read-out and setting: the same measure for `COc1ccc(OC)c(C2NC(=S)NC3=C2C(=O)c2ccccc23)c1` (stereo not drawn): less than 6.00.
For the compound `O=C1C2=C(NC(=S)NC2c2ccc(Cl)c(Cl)c2)c2ccccc21` (stereo not drawn), the pIC50 is 6.00 to 6.30.
Still for that read-out and setting: the same measure for `O=C1C2=C(NC(=S)NC2c2cc(Cl)ccc2F)c2ccccc21` (stereo not drawn): greater than 7.00; for `O=C1C2=C(NC(=S)NC2c2cccc(Cl)c2Cl)c2ccccc21` (stereo not drawn): 6.30 to 7.00; for `O=C1C2=C(NC(=S)NC2c2ccc(F)cc2)c2ccccc21` (stereo not drawn): less than 6.00.
The same measure, in the same setting: the same measure for `CN(C)c1ccc(C2NC(=S)NC3=C2C(=O)c2ccccc23)cc1` (stereo not drawn): less than 6.00; for `COc1ccc(O)c(C2NC(=S)NC3=C2C(=O)c2ccccc23)c1` (stereo not drawn): greater than 7.00.
The same measure, in the same setting: the same measure for `CCCCOc1cccc(C2NC(=S)NC3=C2C(=O)c2ccccc23)c1` (stereo not drawn): less than 6.00; for `COc1ccc(Br)c(C2NC(=S)NC3=C2C(=O)c2ccccc23)c1` (stereo not drawn): greater than 7.00; for `O=C1C2=C(NC(=S)NC2c2cccc(OCCO)c2)c2ccccc21` (stereo not drawn): 6.30 to 7.00.
Take `O=C1C2=C(NC(=S)NC2c2ccc([N+](=O)[O-])cc2)c2ccccc21` (stereo not drawn): the pIC50 was 6.00 to 6.30.
Still for that read-out and setting: then `O=C1C2=C(NC(=S)NC2c2cccc(Cl)c2)c2ccccc21` (stereo not drawn), with greater than 7.00; and `COc1cccc(C2NC(=S)NC3=C2C(=O)c2ccccc23)c1` (stereo not drawn), with greater than 7.00.
On the same count and under the same terms, the same measure for `O=C1C2=C(NC(=S)NC2c2ccccc2Br)c2ccccc21` (stereo not drawn): greater than 7.00.

Staying with this experiment, now noted: read-out: Activity (IC50), human TRPA1, block of current in continued presence of AITC, the 3rd table, scaffold drawing 21.
As to `O=C1C2=C(NC(=S)NC2c2ccccc2)c2cc(O)ccc21` (stereo not drawn), the pIC50 was less than 6.00.
With `O=C1C2=C(NC(=S)NC2c2ccccc2)c2cccc(O)c21` (stereo not drawn), the pIC50 was less than 6.00.
On the same count and under the same terms, then `COc1ccc2c(c1)C1=C(C2=O)C(c2ccccc2)NC(=S)N1` (stereo not drawn), with 6.30 to 7.00.

Still in this experiment, the particulars now being: read-out: Activity (IC50), human TRPA1, block of current in continued presence of AITC, the 5th table, scaffold drawing 23.
Consider `COCCCOc1cccc(C2NC(=O)NC3=C2C(=O)c2ccccc23)c1` (stereo not drawn), for which the pIC50 was 6.30 to 7.00.
With `O=C1NC2=C(C(=O)c3ccccc32)C(c2ccccc2)N1` (stereo not drawn), the pIC50 was less than 6.00.
